Test results reported in US6365373 (Genentech, dated 2002).

What was measured:
[1] = target: T1, human trkC receptor immunoadhesin (trkC extracellular domain fused to immunoglobulin constant domains) (human, UniProt Q16288 32-429); assay: competitive displacement of labeled NT-3 from human trkC immunoadhesin, 96-well plate
T1 construct: extracellular domain; not shown: immunoglobulin constant domains

[2] = target: T1, human trkC receptor immunoadhesin (trkC …); assay: competitive displacement binding to human trkC immunoadhesin

Binder	IC50mut/IC50NT-3 [1]	IC50mut/IC50NGF12 [1]	improvement in binding to trkC compared to NGF12 [2]
NGF123 (ligand) SSSHPIFHRGEFSVCDSESLWVTDKTTAIDIKGKEVMVLGEVNINNSVFKQYFFETKCRDPNPVDSGCRGIDSKHWNSYCKTTQTFVKALTMDGKQAAWRFIRIDTACVCVLSRKAVRRA	17.9 ratio	–	–
NGF124 (ligand) SSSHPIFHRGEFSVCDSESLWVTDKTTATDIKGKEVMVLGEVNINNSVFKQYFFETKCRDPNPVDSGCRGIDSKHWNSQCKTTQTYVKALTMDGKQAAWRFIRIDTACVCVLSRKAVRRA	–	0.5 ratio	–
NGF125 (ligand) SSSHPIFHRGEFSVCDSESLWVTDKTTATDIKGKEVMVLGEVNINNSVFKQYFYETRCRDPNPVDSGCRGIDSKHWNSYCKTTQTFVKALTMDGKQAAWRFIRIDTACVCVLSRKAVRRA	14 ratio	0.9 ratio	–
NGF126 (ligand) SSSHPIFHRGEFSVCDSESLWVTDKTTATDIKGKEVMVLGEVNINNSVFKQYFFETKCRDPNPVDSGCRGIDSKHWNSYCKTTQTYVKALTMDGKQAAWRFIRIDTACVCVLSRKAVRRA	3.3 ratio	0.2 ratio	4.5 fold
NGFR1 (ligand) SSSHPIFHRGEFSVCDSESLWVGDKTTATDIKGKEVMVLGEVNINNSVFKQYFFETKCRDPNPVDSGCRGIDSKHWNSYCKTTQTFVKALTMDGKQAAWRFIRIDTACVCVLSRKAVRRA	3560 ratio	242 ratio	–
